# Results published in ChEMBL document CHEMBL1136931, “Discovery of low nanomolar and subnanomolar inhibitors of the mycobacterial beta-carbonic anhydrases Rv1284 and Rv3273” (J Med Chem, 2009).
# Target: T1, PROBABLE TRANSMEMBRANE CARBONIC ANHYDRASE (CARBONATE DEHYDRATASE) (CARBONIC DEHYDRATASE) (Mycobacterium tuberculosis, UniProt P96878)
# T1 sequence (P96878 whole entry): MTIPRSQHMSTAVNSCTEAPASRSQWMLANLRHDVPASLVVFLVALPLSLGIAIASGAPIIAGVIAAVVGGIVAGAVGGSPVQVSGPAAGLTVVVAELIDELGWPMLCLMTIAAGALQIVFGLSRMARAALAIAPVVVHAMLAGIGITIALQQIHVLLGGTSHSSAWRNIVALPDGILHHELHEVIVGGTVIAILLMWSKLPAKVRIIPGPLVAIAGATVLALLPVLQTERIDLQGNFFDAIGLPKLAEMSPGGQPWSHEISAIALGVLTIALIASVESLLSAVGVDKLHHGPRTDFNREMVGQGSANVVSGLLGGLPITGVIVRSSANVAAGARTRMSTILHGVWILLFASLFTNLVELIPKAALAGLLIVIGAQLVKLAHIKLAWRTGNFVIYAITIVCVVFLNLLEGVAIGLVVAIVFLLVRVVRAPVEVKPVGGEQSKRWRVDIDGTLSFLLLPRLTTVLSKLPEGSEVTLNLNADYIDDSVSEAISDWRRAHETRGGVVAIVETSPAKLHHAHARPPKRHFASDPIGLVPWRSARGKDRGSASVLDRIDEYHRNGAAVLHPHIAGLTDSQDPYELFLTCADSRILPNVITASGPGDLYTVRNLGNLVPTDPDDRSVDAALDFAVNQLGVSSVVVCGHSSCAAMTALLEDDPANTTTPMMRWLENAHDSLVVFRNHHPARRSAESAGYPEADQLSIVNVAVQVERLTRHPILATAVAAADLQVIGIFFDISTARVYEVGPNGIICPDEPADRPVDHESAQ
smiles,measurement,value
Nc1ccc(S(N)(=O)=O)cc1Br,Ki,40 nM
